# Assay results reported in US20260116910A1, “POLYCYCLIC COMPOUNDS AND METHODS THEREOF” (HEPAITECH (BEIJING) BIOPHARMA TECHNOLOGY CO., LTD., priority 2021, published 2026).
# By UniProt entry, the sequences of proteins in these tests, tags left out. Residues count along the entry.
# UniProt Q96RI1, 1-476 isoform 1 limits assumed: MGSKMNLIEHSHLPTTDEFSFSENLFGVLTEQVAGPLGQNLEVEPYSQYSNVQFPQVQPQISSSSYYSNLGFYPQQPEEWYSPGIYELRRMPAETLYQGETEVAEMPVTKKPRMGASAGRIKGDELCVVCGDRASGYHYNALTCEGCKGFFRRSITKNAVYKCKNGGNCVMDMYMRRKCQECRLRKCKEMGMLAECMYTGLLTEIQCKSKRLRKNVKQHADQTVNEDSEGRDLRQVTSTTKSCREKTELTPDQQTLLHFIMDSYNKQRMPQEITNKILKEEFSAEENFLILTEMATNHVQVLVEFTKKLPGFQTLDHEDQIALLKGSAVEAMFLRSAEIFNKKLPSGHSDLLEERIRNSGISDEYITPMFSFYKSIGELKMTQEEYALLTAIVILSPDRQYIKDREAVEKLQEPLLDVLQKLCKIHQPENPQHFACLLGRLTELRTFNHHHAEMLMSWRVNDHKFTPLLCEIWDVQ
# UniProt Q96LA9, whole entry: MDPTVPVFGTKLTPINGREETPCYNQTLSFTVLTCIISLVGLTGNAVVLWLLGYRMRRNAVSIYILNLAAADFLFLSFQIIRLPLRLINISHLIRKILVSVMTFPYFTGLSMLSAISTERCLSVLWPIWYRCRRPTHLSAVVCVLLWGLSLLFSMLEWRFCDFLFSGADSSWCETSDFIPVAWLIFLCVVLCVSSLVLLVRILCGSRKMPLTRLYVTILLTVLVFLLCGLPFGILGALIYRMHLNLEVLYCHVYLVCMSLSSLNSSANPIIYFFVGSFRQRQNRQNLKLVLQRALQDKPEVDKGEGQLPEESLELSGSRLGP
# pEC50: −log10 of the molar value.
# Tests used:
# [1] = biological target: human FXR (NR1H4) (Homo sapiens, UniProt Q96RI1); assay: Human FXR (NR1H4) agonist assessment, FXRE-NanoLuc reporter in HEK293T cells; type: cell-based
# [2] = biological target: MRGPRX4 (Homo sapiens, UniProt Q96LA9); assay: MRGPRX4 activation, Fluo-8 Ca2+ FLIPR assay in HEK293T cells stably expressing MRGPRX4; type: cell-based; design: key to MRGPRX4 activation, Average: fluorescence change dF/F0
structure (smiles),measurement,setting,value
[2H]C1([2H])CC[C@@]2(C)[C@@H](C1)[C@@H](CC)[C@@H](O)[C@@H]1[C@@H]2CC[C@]2(C)[C@@H]([C@H](C)CCC(=O)O)CC[C@@H]12,"Efficacy (maximum measured induction of NanoLuc, normalized to CDCA set as 100%)",[1],C (key: A: efficacy >400%; B: 300%<efficacy <=400%; C: 100%<efficacy <=300%; D: efficacy <=100%)
same,pEC50,"[1]; FXR activation, HEK293T FXRE-NanoLuc reporter, 24 hr",> 6.00
same,"MRGPRX4 activation, Average","[2]; E3-9, Conc. (Log[M]) −4.0",0.196
same,"MRGPRX4 activation, Average","[2]; E3-9, Conc. (Log[M]) −4.5",−0.004
same,"MRGPRX4 activation, Average","[2]; E3-9, Conc. (Log[M]) −5.0",0.010
same,"MRGPRX4 activation, Average","[2]; E3-9, Conc. (Log[M]) −5.4",0.018
same,"MRGPRX4 activation, Average","[2]; E3-9, Conc. (Log[M]) −5.9",0.015
same,"MRGPRX4 activation, Average","[2]; E3-9, Conc. (Log[M]) −6.4",0.013
same,"MRGPRX4 activation, Average","[2]; E3-9, Conc. (Log[M]) −6.9",0.018
same,"MRGPRX4 activation, Average","[2]; E3-9, Conc. (Log[M]) −7.3",0.015
same,"MRGPRX4 activation, Average","[2]; E3-9, Conc. (Log[M]) −7.8",0.018
same,"MRGPRX4 activation, Average","[2]; E3-9, Conc. (Log[M]) −8.3",0.027
same,EC50,"[2]; read-out: Activity (EC50 μM), MRGPRX4 activation, Ca2+ fluorescence, no activation in tested range reported as III",> 100 µM
